Results reported in US20230295114A1, “AKT3 MODULATORS” (Georgiamune LLC, priority 2020, published 2023).

Amino acid sequences for entries named in this document (tags omitted).
UniProt Q9Y243, whole entry: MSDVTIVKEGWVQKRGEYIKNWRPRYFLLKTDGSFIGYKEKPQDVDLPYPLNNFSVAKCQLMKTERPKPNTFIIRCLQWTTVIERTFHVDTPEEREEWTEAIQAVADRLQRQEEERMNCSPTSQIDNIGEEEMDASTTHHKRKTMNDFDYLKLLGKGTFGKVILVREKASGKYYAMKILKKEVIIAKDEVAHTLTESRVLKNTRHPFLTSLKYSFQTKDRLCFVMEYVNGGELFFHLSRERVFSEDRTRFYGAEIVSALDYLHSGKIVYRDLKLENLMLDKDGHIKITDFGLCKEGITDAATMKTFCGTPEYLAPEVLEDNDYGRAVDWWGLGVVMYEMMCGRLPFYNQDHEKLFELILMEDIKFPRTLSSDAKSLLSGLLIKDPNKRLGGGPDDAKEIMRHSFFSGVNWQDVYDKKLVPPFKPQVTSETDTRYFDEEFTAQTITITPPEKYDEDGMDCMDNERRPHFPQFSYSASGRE

Tests used:
Akt3 [1] = target: T1, Akt3 (Homo sapiens, UniProt Q9Y243); experiment: Akt3 activation activity of selected compounds; assay type: cell-based; conditions: read-out: EC50, Akt3 activation activity
Akt3 [2] = target: T1, Akt3; experiment: Akt3 inhibition activity of selected compounds; assay type: cell-based; conditions: read-out: IC50, Akt3 inhibition activity

| EC50 (Akt3 [1]) | IC50 (Akt3 [2]) | Compound |
| --- | --- | --- |
| < 100 nM | – | Cc1cc(Nc2ccc3[nH]c(-c4ccc(Nc5cc(C)nc6ccc(N7CCOCC7)cc56)cc4)nc3c2)ccn1 |
| – | < 500 nM | Cc1cc(Nc2ccc3c(c2)CN(c2cccc(Nc4cccc(F)c4)c2)C3=O)ccn1 |
